The source of these data is PubChem BioAssay (NCATS).

Chains of the proteins cited; added tags and fusions are not shown.
UniProt Q99828, whole entry: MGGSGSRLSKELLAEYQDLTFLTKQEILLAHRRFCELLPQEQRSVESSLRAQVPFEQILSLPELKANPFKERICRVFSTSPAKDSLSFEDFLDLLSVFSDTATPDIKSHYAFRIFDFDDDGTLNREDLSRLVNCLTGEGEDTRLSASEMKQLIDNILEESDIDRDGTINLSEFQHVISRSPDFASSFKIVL
UniProt O15297, whole entry: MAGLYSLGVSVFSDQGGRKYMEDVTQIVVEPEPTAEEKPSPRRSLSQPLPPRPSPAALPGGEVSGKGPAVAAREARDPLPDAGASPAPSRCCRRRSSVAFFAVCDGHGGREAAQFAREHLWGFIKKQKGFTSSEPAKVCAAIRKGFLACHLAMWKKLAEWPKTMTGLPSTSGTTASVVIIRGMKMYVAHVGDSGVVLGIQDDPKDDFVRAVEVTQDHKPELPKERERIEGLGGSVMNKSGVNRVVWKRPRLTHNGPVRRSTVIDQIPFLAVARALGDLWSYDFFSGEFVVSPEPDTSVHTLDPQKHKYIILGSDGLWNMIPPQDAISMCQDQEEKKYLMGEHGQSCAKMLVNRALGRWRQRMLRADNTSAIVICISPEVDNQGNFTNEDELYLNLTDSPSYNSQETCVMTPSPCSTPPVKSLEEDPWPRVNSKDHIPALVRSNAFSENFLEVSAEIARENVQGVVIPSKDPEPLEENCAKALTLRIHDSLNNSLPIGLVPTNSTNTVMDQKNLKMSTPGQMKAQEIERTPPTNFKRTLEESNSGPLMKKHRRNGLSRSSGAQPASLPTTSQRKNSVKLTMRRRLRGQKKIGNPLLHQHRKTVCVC
UniProt P11712, whole entry: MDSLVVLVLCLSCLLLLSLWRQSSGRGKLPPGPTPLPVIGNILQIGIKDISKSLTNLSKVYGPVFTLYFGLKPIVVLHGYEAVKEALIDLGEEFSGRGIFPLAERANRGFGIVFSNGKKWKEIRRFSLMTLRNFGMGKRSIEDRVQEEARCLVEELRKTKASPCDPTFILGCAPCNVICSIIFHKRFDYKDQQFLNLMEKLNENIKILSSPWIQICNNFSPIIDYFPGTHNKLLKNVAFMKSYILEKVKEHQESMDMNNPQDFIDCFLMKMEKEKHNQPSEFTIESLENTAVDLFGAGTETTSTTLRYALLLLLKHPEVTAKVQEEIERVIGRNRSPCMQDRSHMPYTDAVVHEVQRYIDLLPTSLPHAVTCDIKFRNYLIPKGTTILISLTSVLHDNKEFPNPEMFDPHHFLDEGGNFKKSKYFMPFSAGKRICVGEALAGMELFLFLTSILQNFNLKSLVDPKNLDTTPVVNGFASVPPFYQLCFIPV
UniProt P10635, whole entry: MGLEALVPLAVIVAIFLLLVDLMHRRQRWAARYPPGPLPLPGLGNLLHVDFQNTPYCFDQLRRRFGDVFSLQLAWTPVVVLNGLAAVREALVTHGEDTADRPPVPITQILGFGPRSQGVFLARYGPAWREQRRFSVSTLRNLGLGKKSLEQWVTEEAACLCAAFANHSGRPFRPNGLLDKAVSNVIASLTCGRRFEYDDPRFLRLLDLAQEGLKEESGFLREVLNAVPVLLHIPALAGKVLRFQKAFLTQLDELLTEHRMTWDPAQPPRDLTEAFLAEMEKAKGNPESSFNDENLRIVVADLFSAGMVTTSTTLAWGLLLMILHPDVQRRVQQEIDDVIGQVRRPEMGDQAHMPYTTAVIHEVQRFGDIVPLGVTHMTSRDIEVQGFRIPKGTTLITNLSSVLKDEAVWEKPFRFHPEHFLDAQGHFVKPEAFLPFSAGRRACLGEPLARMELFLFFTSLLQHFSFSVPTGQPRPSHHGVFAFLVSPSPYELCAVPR
UniProt P08684, whole entry: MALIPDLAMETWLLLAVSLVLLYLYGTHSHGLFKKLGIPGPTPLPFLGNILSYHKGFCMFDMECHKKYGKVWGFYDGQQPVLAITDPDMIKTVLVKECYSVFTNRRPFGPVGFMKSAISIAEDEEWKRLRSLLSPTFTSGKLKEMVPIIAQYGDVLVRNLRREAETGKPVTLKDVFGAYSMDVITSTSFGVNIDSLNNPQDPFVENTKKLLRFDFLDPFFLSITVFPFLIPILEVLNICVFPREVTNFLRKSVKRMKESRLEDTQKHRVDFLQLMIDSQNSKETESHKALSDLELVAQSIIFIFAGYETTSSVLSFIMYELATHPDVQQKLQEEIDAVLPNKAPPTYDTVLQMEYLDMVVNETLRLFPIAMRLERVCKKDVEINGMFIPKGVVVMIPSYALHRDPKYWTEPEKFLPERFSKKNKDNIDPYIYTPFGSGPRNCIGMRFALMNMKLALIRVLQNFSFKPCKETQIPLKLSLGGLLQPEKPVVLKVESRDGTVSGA

Assay [1] is described as follows: qHTS to identify inhibitors of the type 1 interferon - major histocompatibility complex class I in skeletal muscle: primary screen against the NCATS Mechanism Interrogation Plate v5.0 (MIPE) Libary (AID 1347411).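 Further: plate controls were vehicle for no effect and reference inhibitor for full effect; nearly all actives have a fitted effect of over 65% in size.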 To be noted: iHSKM cells + IFN-b, HiBiT-tagged MHC-I luminescence, 24 h; at 45.8 µM (top of the series). A digest of the protocol: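 Cells were genome-edited human myoblasts carrying a HiBit tag on endogenous HLA-B. They were treated with IFN-beta (4.0 ng/ml) and titrated compounds (top 46 uM) for 24 hrs before lytic HiBiT detection.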
(In general: qHTS replaces the single test concentration by a dilution series.)

The nature of assay [2]: Primary qHTS for inhibitors of nuclear receptor binding SET domain protein 2 (NSD2) in an RCH-ACV wild type WT cells (2C) (AID 1645877). Further: on the % scale 0 is the no-effect control and ±100 the full control effect; nearly all actives have a fitted effect of over 70% in size. Conditions: RCH-ACV NSD2 WT (2C) viability, CellTiter-Glo, 72 h; at 44.9 µM (top of the series) unless noted.
In assay [3] the target is Calcium and integrin-binding protein 1 (Homo sapiens) (UniProt Q99828). Briefly: Primary qHTS for Identification of Calcium Integrin Binding Protein 1 (CIB1) Competitor (AID 1508620).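 Further: GST tagged CIB1 binding a fluorescein labelled alphaIIb integrin peptide tracer; top concentration of the series differs between compounds; on the % scale 0 is the no-effect control and ±100 the full control effect.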 Conditions: CIB1-GST / FITC-alphaIIb peptide fluorescence polarization; at 114 µM (top of the series) unless noted. A digest of the protocol:
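Fluorescence polarization competition: GST-tagged CIB1 (1 uM final) preincubated with compound 15 min at room temperature, then FITC-labelled alphaIIb peptide (100 nM final) added. After 15 min at room temperature, polarization read at Ex 480/Em 540.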

Assay [4] can be described thus: Primary qHTS for inhibitors of nuclear receptor binding SET domain protein 2 (NSD2) in an isogenic RCH-ACV NSD2 p.E1099K mutant (9B) (AID 1645876). Further: on the % scale 0 is the no-effect control and ±100 the full control effect; nearly all actives have a fitted effect of over 70% in size. Conditions: RCH-ACV (leukaemia line) NSD2 E1099K (9B) viability, CellTiter-Glo, 72 h; at 44.9 µM (top of the series) unless noted.
Assay [5] in a line: qHTS of pediatric cancer cell lines to identify multiple opportunities for drug repurposing: Primary screen for control Hh wild type fibroblast cells (AID 1347106).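 Further: on the % scale 0 is the no-effect control and ±100 the full control effect; a drop in luminescence marks cytotoxicity and a rise apparent proliferation; nearly all actives have a fitted effect of over 55% in size.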 Conditions: Hh wild-type fibroblast viability, CellTiter-Glo luminescence, 48 h; at 46 µM (top of the series) unless noted. An outline of the steps: (§1)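 Viability after 48 h compound treatment at 37C, 500-1,000 cells/well, read as ATP luminescence with CellTiter-Glo. Primary screens used 11-point (MIPE, 0.78 nM-46 µM) or 8-point (NPC, 0.59 nM-46 µM) final concentrations; follow-up screens used 11-point dilutions.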

Assay [6] is described as follows: qHTS of pediatric cancer cell lines to identify multiple opportunities for drug repurposing: Primary screen for Rh30 cells (AID 1347107). Further: on the % scale 0 is the no-effect control and ±100 the full control effect; nearly all actives have a fitted effect of over 75% in size. To be noted: Rh30 rhabdomyosarcoma viability, CellTiter-Glo luminescence, 48 h; at 46 µM (top of the series) unless noted. An outline of the steps:
as §1

Assay [7] is described as follows: qHTS of pediatric cancer cell lines to identify multiple opportunities for drug repurposing: Primary screen for Rh41 cells (AID 1347108).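 Further: luminescence drop marks cytotoxic hits; nearly all actives have a fitted effect of over 70% in size.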 Conditions: Rh41 rhabdomyosarcoma viability, CellTiter-Glo luminescence, 48 h; at 92.7 µM (top of the series) unless noted. A digest of the protocol:
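CRCs from 8- or 11-point titrations (lowest final 0.59 nM NPC, 0.78 nM MIPE). Cell viability: CellTiter-Glo after 48 h incubation, 15 min room-temperature development, luminescence imaging.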

A short description of assay [8]: qHTS to identify inhibitors of the type 1 interferon - major histocompatibility complex class I in skeletal muscle: primary screen against the NCATS Pharmaceutical Collection (AID 1347407). Further: on the % scale 0 is the no-effect control and ±100 the full control effect. To be noted: human skeletal muscle cells, IFN-b-induced MHC-I HiBiT luminescence, 24 h; at 45.9 µM (top of the series) unless noted. An outline of the steps: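 Immortalized human myoblasts (C25cl48) with HiBiT knocked into endogenous HLA-B*08:01 were stimulated with 4 ng/ml IFN-beta and treated with compounds (8-point, 1:5, top 46 uM final) for 24 h at 37 C; HiBiT lytic luminescence read.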

Assay [9] has as its target Protein phosphatase 1D (Homo sapiens) (UniProt O15297). Briefly: RapidFire Mass Spectrometry qHTS Assay for Modulators of WT P53-Induced Phosphatase 1 (WIP1) (AID 1347424).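 Further: amount of dephosphorylated VEPPL-S-QETFS peptide product formed by WIP1; plate controls were DMSO wells for no effect and GSK830371 inhibitor control at 10 µM for full effect.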 Conditions: WIP1 dephosphorylation of phosphopeptide, RapidFire MS; at 63 µM (top of the series) unless noted. An outline of the steps:
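10 nM WIP1 preincubated with compounds 1 hr at room temperature in pH 7.5 Tris buffer with 30 mM MgCl2, 1 mM TCEP; 2 uM VEPPL-pS-QETFS phosphopeptide for 5 min, formic acid quench; dephosphorylated product quantified by RapidFire MS against labelled standard.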

For assay [10] the target is unchanged. Briefly: Rhodamine-PBP qHTS Assay for Modulators of WT P53-Induced Phosphatase 1 (WIP1) (AID 1347425). Further: % of control where 0% means no effect. To be noted: recombinant WIP1, Rhodamine-PBP phosphate fluorescence, real-time; at 57.5 µM (top of the series) unless noted. A digest of the protocol: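 The read-out is the change in Rhodamine-PBP fluorescence (f1 - f0, ex 525/em 598 nm) as Pi is released, read each minute for 11 min. Final reaction: 5 nM WIP1, 10 uM phosphopeptide VEPPL-pS-QETFS, 10 uM Rh-PBP, 50 mM Tris-HCl pH 7.5, 30 mM MgCl2. Compound was preincubated with enzyme for 1 hour at room temperature.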

Assay [11] can be described thus: Primary qHTS for small molecule stabilizers of the endoplasmic reticulum resident proteome: Secreted ER Calcium Modulated Protein (SERCaMP) assay (AID 1508630). Further: on the % scale 0 is the no-effect control and ±100 the full control effect. Conditions: SH-SY5Y GLuc-SERCaMP (Gaussia luciferase released on ER calcium loss) secretion, thapsigargin, luminescence; at 38.4 µM (top of the series). A digest of the protocol: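 GLuc-SERCaMP-expressing SH-SY5Y cells, pretreated 16 h with compound, are challenged with thapsigargin to empty ER calcium stores; after 4 h, coelenterazine is added directly to the medium and luminescence is imaged.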

Assay [12] addresses Cytochrome P450 2C9 (Homo sapiens) (UniProt P11712). Briefly: Cytochrome P450 family 2 subfamily C member 9 (CYP2C9) small molecule antagonists: luciferase qHTS assay (AID 1645842; active means well fitted curve in the direction sought with a large enough effect in the repeat runs; an effect the other way counts as inactive or inconclusive; further: on the % scale 0 is the no-effect control and ±100 the full control effect; nearly all actives have a fitted effect of over 55% in size). Conditions: P450-Glo CYP2C9 enzyme assay, luciferin luminescence; at 57.4 µM (top of the series) unless noted. A digest of the protocol:
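Luminescence, after 20 min with luciferin detection reagent, reflected CYP2C9 turnover during a 1 h NADPH-driven reaction at 37C. Enzyme-substrate mix contained 0.4% bovine serum albumin and was preincubated with compound 10 min at room temperature.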

A short description of assay [13]: Counterscreen qHTS for small molecule stabilizers of the endoplasmic reticulum resident proteome: GLuc-NoTag assay (AID 1508627).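 Further: SH-SY5Y cells given compound then 100 nM thapsigargin to empty ER calcium; 0% = thapsigargin alone and -100% = DMSO vehicle control.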 To be noted: Gaussia luciferase NoTag secretion counterscreen, luminescence, thapsigargin 100 nM for final 4 h; at 76.4 µM (top of the series). A digest of the protocol: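 SH-SY5Y cells stably expressing constitutively secreted GLuc without SERCaMP tag, exposed to compound for 19 hr, then to 100 nM thapsigargin for 4 hr at 37C. Medium luciferase was read by coelenterazine luminescence without lysis.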

Assay [14] can be described thus: A High-Content qHTS Against Drug Library for the Identification of Small Molecules that Inhibit DYT1 Early Onset Primary Dystonia-Associated Cell Pathology (AID 1645839; calls by dose curve). To be noted: HEK293 Flp-In EGFP-delE TorsinA, punctate imaging, 48 h; at 46.1 µM (top of the series) unless noted. A digest of the protocol:
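Flp-In T-REx 293 cells with tetracycline-inducible EGFP-delE hTOR1A (WT EGFP-hTOR1A as reference), 800 cells/well; compound added with tetracycline, 48 h at 37 C. Fixed, permeabilized cells imaged; %pathology (punctate TorsinA) primary, cell count counterscreen.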

Assay [15] deals with Cytochrome P450 2D6 (Homo sapiens) (UniProt P10635). Briefly: Cytochrome P450 family 2 subfamily D member 6 (CYP2D6) small molecule antagonists: luciferase biochemical (cell-free) qHTS assay (AID 1645840; active means well fitted curve in the direction sought with a large enough effect in the repeat runs; an effect the other way counts as inactive or inconclusive; further: nearly all actives have a fitted effect of over 55% in size; further: potency means the concentration at half of the fitted maximal effect; on activity change, negative = inhibition: on the % scale 0 is the no-effect control and ±100 the full control effect). An outline of the steps: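 P450-Glo luminescent screen: recombinant CYP2D6 enzyme–proluciferin substrate mix preincubated with compound 10 min at room temperature, then NADPH regeneration added for 1 h at room temperature. Detection reagent added for 20 min; luciferin light read as relative luminescence units.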

Assay [16] addresses Cytochrome P450 3A4 (Homo sapiens) (UniProt P08684). Briefly: Cytochrome P450 family 3 subfamily A member 4 (CYP3A4) small molecule antagonists: luciferase qHTS assay (AID 1645841; active means well fitted curve in the direction sought with a large enough effect in the repeat runs; an effect the other way counts as inactive or inconclusive; further: nearly all actives have a fitted effect of over 45% in size; further: potency means the concentration at half of the fitted maximal effect).

SMILES strings stand for the structures. The entries are a selection whose mix differs from that of the whole data set. Results filed as inconclusive are left out. Some salts or complexes appear as unconnected parts, following the source record. The source made the active and inactive calls. Unless noted, the call rests on the fitted dose curve; in most records, active means well fitted curve in the direction sought with a large enough effect; inconclusive means small, poorly fitted or top-dose-only effect, or another doubt; inactive means no such curve, though single readings can be large; an effect the other way counts as inactive or inconclusive.

In the case of `C/C1=C2/N=C(C(CC(N)=O)C2(C)CCC(=O)NCC(C)OP(=O)([O-])OC2C(CO)OC(n3cnc4cc(C)c(C)cc43)C2O)C2(C)N=C(/C(C)=C3N=C(/C=C4N=C1C(CCC(N)=O)C\4(C)C)C(CCC(N)=O)C/3(C)CC(N)=O)C(CCC(N)=O)C2(C)CC(N)=O.[C-]#N.[Co]` (centres undefined), the activity change, negative = inhibition in assay [1] was inactive: -22.3%. The activity change, negative = cell killing in [2] was inactive: -28.6%.
In the case of `C/C1=C2N=C(/C=C3N=C(/C(C)=C4\N=C(C(CC(N)=O)C4(C)CCC(=O)NCC(C)OP(=O)([O-])OC4C(CO)OC(n5cnc6cc(C)c(C)cc65)C4O)C4(C)N=C1C(CCC(N)=O)C4(C)CC(N)=O)C(CCC(N)=O)C\3(C)C)C(CCC(N)=O)C/2(C)CC(N)=O.[C-]#N.[Co]` (centres undefined), in [3], the activity change, negative = inhibition is inactive: 4.31% [at 57.7 µM]. The activity change, negative = viability loss in assay [4] is inactive: -20.3% [at 17.3 µM]. The activity change, negative = cell killing in assay [2] was inactive: -17.6% [at 17.3 µM].
With `Cc1cccc([N+](=O)[O-])c1[N+](=O)[O-]`, the activity change, negative = cytotoxic in [5] is inactive: 13.8% [at 92.7 µM]; in assay [6], inactive: 23% [at 92.7 µM]; in [7], inactive: 29.3%. Also, the activity change, negative = inhibition in assay [8] is inactive: -14.1% [at 92.2 µM]; in assay [9] it was inactive: -12.4% [at 90.1 µM]; in [10] it was inactive: 4.48% [at 82.2 µM]; in [3], inactive: -3.01% [at 228 µM]; in [11] it was inactive: -14.1%; in assay [12] it was inactive: 28.3% [at 115 µM].
As to `C/C1=C2N=C(/C=C3N=C(/C(C)=C4\[N-][C@@](C)([C@@H]5N=C1[C@](C)(CCC(=O)NC[C@@H](C)OP(=O)([O-])O[C@H]1[C@@H](O)[C@@H](n6cnc7cc(C)c(C)cc76)O[C@@H]1CO)[C@H]5CC(N)=O)[C@@](C)(CC(N)=O)[C@@H]4CCC(N)=O)[C@@](C)(CC(N)=O)[C@@H]\3CCC(N)=O)C(C)(C)[C@@H]/2CCC(N)=O.[C-]#N.[Co+3]`, the figures for the activity change, negative = cytotoxic in [5] and in assay [6] were inactive: -19.2% and inactive: 2.38%, respectively. Also, the activity change, negative = inhibition in assay [8] was inactive: -28.7%; in [9] it was inactive: -1.15%; in [10], inactive: -17.9%; in assay [3] it was inactive: 9.8%; in [13], inactive: -41.8%; in assay [12], inactive: 14.6%. For the same molecule, in assay [14], the % pathology change, negative = correction was inactive: 0.893%. Besides, the Potency result in [15] and in assay [16] was “inactive” each time. In addition, the activity change, negative = viability loss in assay [4] was inactive: -8.28%. Also, the activity change, negative = cell killing in assay [2] is inactive: -16.8%.
In the case of `O=[N+]([O-])OCC(CO[N+](=O)[O-])(CO[N+](=O)[O-])CO[N+](=O)[O-]`, the Potency entry in [15] is “inactive”. Besides, the activity change, negative = inhibition in assay [12] was inactive: -26.5%.
Turning to `O=[N+]([O-])c1cccc([N+](=O)[O-])c1`, the activity change, negative = cytotoxic is inactive: -12.8% [at 92.7 µM] in assay [5], inactive: 28.2% [at 92.7 µM] in assay [6] and inactive: 33.8% in assay [7]. Besides, the activity change, negative = inhibition in assay [8] was inactive: -13.1% [at 92.2 µM]; in [10], inactive: 11.1% [at 116 µM]; in [3] it was inactive: -4.88% [at 228 µM]; in assay [12] it was inactive: 8.37% [at 115 µM]. In [14], the % pathology change, negative = correction is inactive: 13.7% [at 91.7 µM]. For the same molecule, the Potency was active: 35 µM in assay [15] and active: 17.5 µM in assay [16].
